Species: Homo sapiens
Assay: Selectivity ratio of IC50 for human GST-tagged haspin expressed in baculovirus expression system to IC50 for recombinant human N-terminal His6-tagged DYRK1A expressed in Escherichia coli BL21(DE3)

O=C(Nc1cncc(-c2cc(-c3cccnc3)cs2)c1)C1CC1
Ratio IC50: 24
